Conditions: freshly drawn human plasma, about 37° C.

Question: Which “free DOX detected from the conjugate in plasma” value (over 7.5 hours) does the source give for “BR96-succinimidocaproyl-phenylalanine-lysine-p-aminovenzyl-carbamoyloxy-doxorubicin [BR96-DOX]” here?
Answer: The value was “No free DOX was detected”.

Question: What about the “half-life in human plasma” value (no release over 7.5 hours) of the same substance?
Answer: The value was greater than 15.6 days.

— patent publication US6214345A, “Lysosomal enzyme-cleavable antitumor drug conjugates” (Bristol-Myers Squibb Co., priority 1993, dated 2001)
